This assay concerns p185^Her-2/neu. As to the kind of experiment: Flow cytometric analysis of cell surface-associated p185Her-2/neu. The class given is cell-based, human. As to conditions: for down-regulation of p185^Her-2/neu expression: OA 5 mM, trastuzumab 5 mg/ml. The procedure: FIG. 1. Flow cytometric analysis of cell surface-associated p185^Her-2/neu in Her-2/neu-overexpressing BT-474 and SK-Br3 breast cancer cells exogenously supplemented with OA. Overnight serum-starved BT-474 and SK-Br3 breast cancer cells were cultured in Improved Minimum Essential Medium (IMEM; Richter's medium; Biosource International, Camarillo, Calif.) -0.1% FBS in the presence or absence of 20 mM OA for 48 hours. The specific surface expression of p185^Her-2/neu in OA-treated cells was determined by flow cytometry by measuring the binding of a mouse anti-p185^Her-2/neu monoclonal antibody directed against the extracellular domain of p185^Her-2/neu (Ab-5 clone), as described herein. The mean fluorescence signal±SD (n=3) associated with cells for labeled p185^Her-2/neu was quantified using the geo mean fluorescence (GM) parameter provided with the Cell Quest Software (Becton Dickinson). FIG. 2. Exogenous supplementation with OA synergistically enhances trastuzumab-induced down-regulation of p185^Her-2/neu. […] The amount of cell surface-associated p185^Her-2/neu was quantified by flow cytometric analyses using a specific antibody against the extracellular domain of p185^Her-2/neu (Ab-5), as described herein. The mean fluorescence signal±SD (n=3) was quantified using the geo mean fluorescence (GM) parameter provided with the Cell Quest Software (Becton Dickinson). […] After labeling, cells were washed thoroughly, and localization of p185^Her-2/neu was detected by indirect immunofluorescence by incubating with FITC-conjugated anti-mouse IgG. […] A) Cell surface expression of Her-2/neu protein in BT-474 and SK-Br3 cells was determined by flow cytometry using a mouse anti-Her-2/neu antibody directed against the extracellular domain of the p185^Her-2/neu oncoprotein (clone Ab-5; Oncogene Research Products; San Diego, Calif.). […] The mean fluorescence signal associated with cells for labeled p185^Her-2/neu was quantified using the Geo Mean (GM) fluorescence parameter provided with the software. […] Immunoreactive bands were detected by enhanced chemiluminescence reagent (Pierce, Rockford, Ill.). […]

“trastuzumab: humanized monoclonal IgG1, binding with high affinity to the ectodomain of p185^Her-2/neu [reference compound]”: the “down-regulation of p185^Her-2/neu expression” value by setting is: (BT-474 cells, alone or concurrently combined) 8%; (SK-Br3 cells, alone or combined) 26%. In addition, for the setting “optimal concentration, 20 mg/ml trastuzumab”, the “reduction of cell surface-associated p185^Her-2/neu expression” value was “up to 48%”.

Source of the values: patent US20070207975A1, “Materials and methods for treating and preventing Her-2/neu overexpressing, FAS-elevated cancer cells” (EVANSTON NORTHWESTERN HEALTHCARE, priority 2006, published 2007).
